System: KOR
Assay: Bias factor, cAMP inhibition vs Tango arrestin, U50,488 as reference
Type: cell-based, human
Settings: U50,488 reference = 1

SMILES: CN(C(=O)Cc1ccc(Cl)c(Cl)c1)C1CCCCC1N1CCCC1 (stereo not shown)
- bias factor toward G protein (95% confidence interval): 1

From PMC10008561, “Molecular mechanism of biased signaling at the kappa opioid receptor” (Nature Communications, 2023)
